This note sets out measurements from US20260137790A1, “MIXED VASOPRESSIN RECEPTOR AGONIST-ANTAGONIST FOR MODULATING MEAN ARTERIAL PRESSURE” (FERRING B.V., priority 2022, published 2026).

Protein sequences, listed by entry. Tags and fused reporters are not part of them.
UniProt Q00788, whole entry: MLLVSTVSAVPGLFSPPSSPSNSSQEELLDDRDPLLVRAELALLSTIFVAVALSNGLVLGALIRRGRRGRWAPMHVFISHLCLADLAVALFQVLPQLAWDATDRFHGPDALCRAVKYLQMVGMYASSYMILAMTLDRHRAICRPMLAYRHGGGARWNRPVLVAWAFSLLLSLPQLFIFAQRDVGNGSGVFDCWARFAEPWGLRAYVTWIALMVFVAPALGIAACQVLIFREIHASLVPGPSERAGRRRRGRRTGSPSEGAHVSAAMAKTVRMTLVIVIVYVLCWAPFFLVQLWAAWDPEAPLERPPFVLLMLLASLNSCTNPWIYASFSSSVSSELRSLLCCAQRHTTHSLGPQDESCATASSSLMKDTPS

Experiment [1] has as its system adult male Wistar rats. As to the kind of experiment: Skin blood flow and blood lactate in anesthetized rats (IV infusion). It is filed as in vivo, rat. As to the method: This study was performed over multiple experiments using a total of 48 adult male Wistar rats. Compounds were dissolved in 2.5% dextrose and 0.45% sodium chloride on the day of the study, at concentrations allowing administration of the desired dose at an infusion rate of 20 μL/kg/min (0.15-150 μmoL/μL). Compounds were infused via an IV catheter at six sequentially increasing doses. A group of vehicle-administered animals received vehicle throughout the study and data were reported from intervals timed analogously with the dose-response in compound 1-administered animals.
On the day of experimentation animals were anesthetized and instrumented. […] Ventilation was initiated, and baseline readings for the primary parameter of skin blood flow (SBF) were recorded. Readings for the secondary parameters were also recorded: (1) blood lactate concentration, (2) mean arterial pressure (MAP), and (3) blood pH. Data collection was performed continuously for SBF and MAP using NOTOCORD-hem™ (Instem), and blood samples were taken at each compound dose and immediately analyzed using an i-STAT® meter.
After the final dose administration, animals were euthanized and a final SBF measurement was recorded to detect any signal from the flow probe after the animal's heart stopped beating to control for a signal not attributed to blood flow. […]

In experiment [2] the target is T1, rV2 (Rattus norvegicus, UniProt Q00788).
T1 construct: host or cells: HEK-293 cells, transient
As to the kind of experiment: Luciferase reporter gene assay, rV2. The class given is cell-based. For orientation: Reporter assays use an easily measured gene product as a stand-in for the process of interest.

As for `NC(=O)CC[C@@H]1NC(=O)[C@H](Cc2ccccc2)NC(=O)[C@H](Cc2ccc(O)cc2)NC(=O)[C@@H](N)CSSC[C@@H](C(=O)N2CCC[C@H]2C(=O)N[C@@H](CCCN=C(N)N)C(=O)NCC(N)=O)NC(=O)[C@H](CC(N)=O)NC1=O` [AVP, arginine vasopressin], the “Emax, skin blood flow decrease” value in experiment [1] came to 91.8%. Moreover, in experiment [2], it took 40 pM to reach a half-maximal effect (EC50).
